These are literature values, as cited in article PMC3397136 (Amino Acids, 2011).

For the series, the target named is T1, human oxytocin receptor (Homo sapiens, UniProt P30559).
T1 sequence (P30559 1-389): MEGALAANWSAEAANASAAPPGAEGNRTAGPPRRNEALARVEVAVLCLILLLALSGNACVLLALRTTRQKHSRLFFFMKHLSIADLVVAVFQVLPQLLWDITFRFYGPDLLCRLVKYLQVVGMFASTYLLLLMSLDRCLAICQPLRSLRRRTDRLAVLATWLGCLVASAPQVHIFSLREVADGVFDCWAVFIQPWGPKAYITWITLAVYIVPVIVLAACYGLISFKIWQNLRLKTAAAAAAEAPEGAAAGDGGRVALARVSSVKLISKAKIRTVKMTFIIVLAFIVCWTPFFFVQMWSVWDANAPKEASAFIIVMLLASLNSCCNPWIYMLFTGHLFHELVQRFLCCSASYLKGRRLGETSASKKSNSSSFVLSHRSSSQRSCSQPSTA
The following applies: HEK cells, ref Reversi et al. (2005); cited from earlier work.

Regarding d[D-Tyr(Et)^2,Thr^4]OVT [Atosiban], the Ki (in general, the equilibrium dissociation constant of an inhibitor or competing ligand from its target) is 71.5 ± 21.2 nM.
